Data on 36 molecules can be found in PubChem BioAssay AID1347076 (National Center for Advancing Translational Sciences (NCATS), 2019).

The entries are a selection whose mix differs from that of the whole data set. Inconclusive results are not listed. Calls of active or inactive are those of the source. Calls come from the whole dose curve; as a rule, active = well fitted cell-killing curve with a large enough effect; inconclusive = small, poorly fitted or top-dose-only effect, or effect the other way; inactive = flat fitted curve, though single readings scatter.
% is set by controls: 0 for no effect and ±100 for the full control effect.

The nature of this experiment: qHTS assay for MDR1-selective chemotherapeutics: Primary screen using the drug-selected MDR subline cells KB-V1. Note: nearly all actives have a fitted effect of over 60% in size. Conditions: KB-V1 MDR cells viability, CellTiter-Glo, 72 h; series mostly up to 46.1 µM; activity change, negative = cytotoxicity: at the top concentration. The text has this: A prime difficulty in effectively treating cancer is the development of cellular resistance to multiple structurally unrelated anticancer drugs, a phenomenon known as multidrug resistance (MDR). […] Numerous strategies to overcome P-gp-mediated MDR have been explored, including the design of drugs that evade recognition and efflux, and development of inhibitors to block efflux and restore drug accumulation. […] An alternative approach is to exploit resistance by identifying drugs that target MDR cells over the non-resistant parental cells from which they were selected. […] The development of MDR1-selective agents represents a new strategy for resolving multidrug resistance, as it remains a long-standing clinical challenge for cancer chemotherapy.
Our goal is to identify compounds that selectively kill P-gp-expressing MDR cells. We will identify MDR1-selective compounds by comparing toxicity of compounds in the screening library against parental, drug-naive (KB-3-1) adenocarcinoma cells as well as their drug-selected MDR sub-line (KB-V1). The differential toxicity of compounds against these two cell lines will be used to identify MDR1-selective compounds, whose cytotoxicity is potentiated, rather than diminished, by P-gp expression. This assay will be utilized to conduct a quantitative high-throughput screen (qHTS) in collaboration with the NIH Chemical Genomics Center to identify selective agents, and probe hits arising from the screen will be validated using secondary assays and characterized through a well-established follow-up research program. This screen was run against the entire NCGC library collection of about 400,000 compounds.
NIH Molecular Libraries Probe Production Network [MLPCN]
NIH Chemical Genomics Center [NCGC]
PI: Michael Gottesman, National Cancer Institute, NIH
Briefly, 5 microL of media containing either KB-V1 cells (columns 1-2, 4-48) are dispensed into Greiner white, treated solid-bottom 1536-well assay plates (media-only control is added to column 3). Compounds are then transferred via Kalypsys pin tool equipped with 1536-pin array (10 nL slotted pins, V&P Scientific, San Diego, CA). Following addition of compound, the plates are incubated at 37 degrees C for 72 hours. CellTiter-Glo (2.5 µL/well) is then added, and the plates are read in a ViewLux reader (Perkin-Elmer, clear luminescence filter, 1 second exposure, 1x binning) following a 10 minute incubation. All cells are dispensed in DMEM phenol-red free media containing 10% FBS.
Library plates were screened starting from the lowest and proceeding to the highest concentration. Vehicle-only plates, with DMSO being pin-transferred to columns 5-48, will be inserted uniformly at the beginning and the end of each library in order to monitor and record any shifts in the background, which can be affected by reagent dispensers or loss in enzyme activity over time. Screening data will be corrected, normalized, and concentration-effect relationships will be derived by using publicly-available NCGC, NCATS curve fitting algorithms (http://ncgc.nih.gov/pub/openhts).
A general note: In qHTS, concentration-response curves come from the screen itself.
Regarding `Nc1cccc2c([As](=O)(O)O)cccc12`, the “activity change, negative = cytotoxicity” value is inactive: -1.63%.

For the molecule `Cc1cccc(OCC(=O)OC2CN3CCC2CC3)c1` (stereo unspecified), the “activity change, negative = cytotoxicity” value is inactive: -4.01%.

In the case of `O=[As](O)(c1cccc(O)c1)c1cccc(O)c1`, the “activity change, negative = cytotoxicity” value was inactive: -15.4%.

On to `O=[As](O)(O)c1cccnc1`, for which the “activity change, negative = cytotoxicity” value is inactive: 10.6%.

On to `CS(=O)(=O)c1ccc(Cl)c(NC(=O)COC(=O)C(O)(c2ccccc2)c2ccccc2)c1`, for which the “activity change, negative = cytotoxicity” value was inactive: 0.868%.

Turning to `O=C(OC1CN2CCC1CC2)c1ccc(Cl)cc1` (stereo unspecified), the “activity change, negative = cytotoxicity” value was inactive: 5.08%.

`O=[N+]([O-])c1ccc2c(c1)nnn2O`: the “activity change, negative = cytotoxicity” value is inactive: -0.0882%.

As to `CN(C(=O)Cc1ccc(Cl)c(Cl)c1)[C@H]1CC[C@@]2(CCCO2)C[C@@H]1N1CCCC1`, the “activity change, negative = cytotoxicity” value was inactive: -29.5%.

For the molecule `CCOP1(=S)c2c(C)nn(CCC#N)c2N=C(c2ccc(F)cc2)N1C` (stereo unspecified), the “activity change, negative = cytotoxicity” value is inactive: -26.7%.

For the molecule `CN(C(=O)Cc1ccccc1)[C@@H]1CC[C@]2(CCCO2)C[C@H]1N1CCCC1`, the “activity change, negative = cytotoxicity” value is inactive: 0.822%.

For the molecule `Nc1ccccc1[As](=O)(O)c1ccccc1`, the “activity change, negative = cytotoxicity” value was inactive: -0.59%.

Take `CS(=O)(=O)c1cc([N+](=O)[O-])c2no[n+]([O-])c2c1`: the “activity change, negative = cytotoxicity” value was inactive: -11.2%.

As to `O=P(Nc1nccs1)(Oc1ccccc1)Oc1ccccc1`, the “activity change, negative = cytotoxicity” value is inactive: 0%.

On to `O=[As](O)(c1cccs1)c1cccs1`, for which the “activity change, negative = cytotoxicity” value is inactive: 1.85%.

Consider `O=P1(Nc2ccc(Br)cn2)COc2ccccc2OC1`, for which the “activity change, negative = cytotoxicity” value is inactive: 8.85%.

As for `NS(=O)(=O)c1cccc(NC(=O)COC(=O)C(O)(c2ccccc2)c2ccccc2)c1`, the “activity change, negative = cytotoxicity” value is inactive: 7.15%.

As to `Nc1cccc([As](=O)(O)c2ccccc2)c1`, the “activity change, negative = cytotoxicity” value is inactive: 4.76%.

Regarding `O=P1(Nc2ncccn2)COc2ccccc2OC1`, the “activity change, negative = cytotoxicity” value is inactive: 4.94%.

In the case of `Cc1ccc(S(=O)(=O)N(CCCN)CCCc2c(C)nc(N)[nH]c2=O)cc1`, the “activity change, negative = cytotoxicity” value was inactive: -8.06%.

In the case of `O=C(/C=C/c1ccccc1)OC1CN2CCC1CC2` (stereo unspecified), the “activity change, negative = cytotoxicity” value was inactive: -0.868%.

For `CCCC1OP(=O)(Nc2ccccc2)OCC1CC` (stereo unspecified), the “activity change, negative = cytotoxicity” value was inactive: 6.04%.

As to `CN(C)C1(CNC(=O)c2ccc(S(C)(=O)=O)cc2)CCCCC1`, the “activity change, negative = cytotoxicity” value is inactive: -7.81%.

Consider `Cc1nn(-c2ccccc2)c2c1P(=O)(N1CCOCC1)N(C)C(c1ccccc1)=N2` (stereo unspecified), for which the “activity change, negative = cytotoxicity” value was inactive: -15.7%.

As for `Cc1ccc(C(=O)OC2CN3CCC2CC3)cc1` (stereo unspecified), the “activity change, negative = cytotoxicity” value is inactive: 11.2%.

Take `COc1cc([N+](=O)[O-])ccc1[N+](=O)[O-]`: the “activity change, negative = cytotoxicity” value is inactive: 17.8%.

As to `CC1(CBr)Cn2c(nc3ccccc3c2=O)S1` (stereo unspecified), the “activity change, negative = cytotoxicity” value was inactive: -0.405%.

For `CC(C)/C=N\N=C(\N)N[N+](=O)[O-]`, the “activity change, negative = cytotoxicity” value was inactive: -8.01%.

On to `COc1ccccc1CNC(=O)COC(=O)C(O)(c1ccccc1)c1ccccc1`, for which the “activity change, negative = cytotoxicity” value is inactive: 1.07%.

As for `O=P1(N(CCCl)CCCl)NCCC(C(F)(F)F)O1` (stereo unspecified), the “activity change, negative = cytotoxicity” value was inactive: 7.38%.

On to `Clc1n[nH]nc1-c1nn[nH][15n]1`, for which the “activity change, negative = cytotoxicity” value was inactive: 1.9%.

In the case of `CC(C)(C)C(=O)NC(Sc1ncccn1)C(Cl)(Cl)Cl` (stereo unspecified), the “activity change, negative = cytotoxicity” value was inactive: -6.69%.

`CCOP(=O)(Nc1ccc(C)cn1)OCC`: the “activity change, negative = cytotoxicity” value was inactive: -2.52%.

As to `CN(CCCl)Cc1cc(Cl)c(NC2=NCCN2)c(Cl)c1`, the “activity change, negative = cytotoxicity” value was inactive: 3.06%.

Take `O=P1(Nc2ccccn2)COc2ccccc2OC1`: the “activity change, negative = cytotoxicity” value is inactive: -8.2%.

For the molecule `CCC1=CC2Cc3nc4ccc(Cl)cc4c(N)c3C(C1)C2` (stereo unspecified), the “activity change, negative = cytotoxicity” value was inactive: -8.57%.

For `CCOP(=O)(NC(=NC(C)c1ccccc1)NC(C)c1ccccc1)OCC` (stereo unspecified), the “activity change, negative = cytotoxicity” value is inactive: 0.721%.
